High-throughput results as filed in PubChem BioAssay.
CAL PDZ FP-1 = CAL PDZ (human) peptide binding inhibition | inhibition, % at 24.9 µM | Q9HD26 | AID 602252 | purified CAL PDZ, TMR-peptide fluorescence polarization, 1 h | 300,000 compounds, 0.92% hits;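 active means mean inhibition of at least 30% with at least half of replicates also reaching 30%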;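 further: 0% = DMSO neutral control and 100% = excess unlabeled competitor peptide PRC23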
ARNT-TACC3 inh = ARNT/TACC3 interaction disruption | inhibition, % at 9.99 µM | Q9Y6A5 | AlphaScreen His-ARNT PAS-B/GST-TACC3 binding, luminescence; TACC3 fragment carries E629A point mutation | 390,000 compounds, 0.66% hits;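 active means mean inhibition of replicates at least 50% and at least half of replicates each reaching 50%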;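 further: 0% = complete ARNT plus TACC3 wells and 100% = ARNT alone without TACC3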
Yeast UUG start = yeast start codon fidelity modulation; AID 602363; activity score, % at 18.7 µM; S. cerevisiae UUG-firefly luciferase reporter, luminescence/redox ratio; 0.13% of 350,000 active;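 active means replicate mean at a twofold rise or more, about +100% in these data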;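 further: firefly luciferase made from a UUG start codon reports start codon fidelity; reporter light over untreated wells divided by growth signal over untreated wells; some hits fall short of that in this replicate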
Vif inh = inhibitors of HIV Vif; HEK293T cells, Vif self-association by quenched fluorescence, imaging, 24 h; inhibition, % at 7.49 µM; 340,000 compounds, 0.35% hits; AID 602346; in the data active means inhibition above about 50%, passing the limit was not always enough
PglD inh = inhibitors of Campylobacter jejuni PglD acetyltransferase. purified PglD enzyme, DTNB colorimetric CoA detection. inhibition, % at 12.5 µM. 360,000 compounds, 0.098% hits. AID 602405; in the data active means inhibition above about 16%, passing the limit was not always enough
CAL PDZ FP-2 = blocks peptide binding to human CAL PDZ domain | Q9HD26 | purified CAL PDZ, TMR-peptide fluorescence polarization, 1 h | inhibition, % at 20 µM | 330,000 compounds, 0.02% hits;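 active means highest replicate inhibition of at least 40%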;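 further: plate controls were DMSO neutral control wells for no effect and unlabeled competitor peptide control wells for full effect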
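Material: tagged CAL PDZ domain; buffer or medium: 25 mM sodium phosphate pH 7.4, 150 mM NaCl, TCEP, IgG, Thesit; compound dosing: single point, 20 µM; schedule: 1 h incubation at room temperature before polarization reading; measured by: FP readout, S and P plane fluorescence; read-out basis: percent inhibition from loss of millipolarization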
Active calls of the source: *; / = not tested or not shown. An excerpt weighted towards active compounds, which were near 1.6% of everything screened.

canonical_smiles | CAL PDZ FP-1 | Yeast UUG start | CAL PDZ FP-2 | ARNT-TACC3 inh | Vif inh | PglD inh
CC1(C)C[C@@H](O)[C@]2(C)CC[C@]3(C)C(=CCC4[C@@]5(C)CC[C@H](O)[C@](C)(CO)C5CC[C@]43C)[C@@H]2C1 (stereo partly drawn) | -4 | -17 | 1 | -6 | 0 | -2
Cc1nc(Nc2ccc(C(=O)O)cc2)sc1-c1ccccc1 | 56* | / | 0 | -1 | -8 | /
O=C(CC1C(=O)NCCN1Cc1cccc(F)c1)NCCCCCN1CCOCC1 (stereo not drawn) | 48* | -5 | -1 | -1 | -9 | 1
c1cnn(Cc2cnc(N3CCOCC3)s2)c1 | 61* | / | -1 | 2 | -2 | /
c1ccc(N2CCN(Cc3cnc(N4CCOCC4)s3)CC2)cc1 | -2 | 0 | -1 | / | -10 | 0
C/C(=N\NC(=O)CC#N)c1cc2ccccc2oc1=O | 0 | / | 0 | 21* | -15 | /
c1ccc(-c2csc(Nc3nc(N4CCOCC4)nc(N4CCOCC4)n3)n2)cc1 | 49* | -14 | 0 | 3 | 36 | 5
CC(C)NC(=O)NCC[C@H]1CC[C@@H](NC(=O)CCN2CCCCC2)[C@@H](CO)O1 | / | / | / | 2 | / | 0
Fc1cccc(/C=N/Nc2ncnc3nc[nH]c23)c1 | / | -25 | -1 | 47* | 15 | 0
COc1ccc(-c2nc(N)n(C(=O)c3ccco3)n2)cc1 | 77* | 10 | / | -4 | 1 | -2
CCOc1ccccc1NC(=O)C1CCCN1S(=O)(=O)c1ccccc1C(F)(F)F (stereo not drawn) | 42* | -10 | 0 | 0 | -8 | -4
CCC(=O)N1CC[C@@H]2[C@H](CO)Nc3ccc(C#Cc4cccc(OC)c4)cc3[C@@H]21 | / | -6 | / | 15 | / | -3
OCCCNC(=S)Nc1ccc(Oc2ccccc2)cc1 | -4 | -17 | -2 | / | -2 | 4
CN(C)CCCNC(=S)Nc1ccc(Oc2ccccc2)cc1 | 61* | / | 1 | 2 | -1 | /
COC1=CC(=O)c2c(ccc3ncnc(N)c23)C1=O | -3 | / | 1 | 31* | 5 | /

Laid out differently: 5 of the compounds above
Values in the order – CAL PDZ FP-1	Yeast UUG start	CAL PDZ FP-2	ARNT-TACC3 inh	Vif inh	PglD inh
> CC(C)NC(=O)NCC[C@H]1CC[C@@H](NC(=O)CCN2CCCCC2)[C@@H](CO)O1
→ /	/	/	2	/	0
> CCOc1ccccc1NC(=O)C1CCCN1S(=O)(=O)c1ccccc1C(F)(F)F (stereo not drawn)
→ 42*	-10	0	0	-8	-4
> CC1(C)C[C@@H](O)[C@]2(C)CC[C@]3(C)C(=CCC4[C@@]5(C)CC[C@H](O)[C@](C)(CO)C5CC[C@]43C)[C@@H]2C1 (stereo partly drawn)
→ -4	-17	1	-6	0	-2
> c1ccc(-c2csc(Nc3nc(N4CCOCC4)nc(N4CCOCC4)n3)n2)cc1
→ 49*	-14	0	3	36	5
> COc1ccc(-c2nc(N)n(C(=O)c3ccco3)n2)cc1
→ 77*	10	/	-4	1	-2

Further entries
canonical_smiles | CAL PDZ FP-1 | Yeast UUG start | CAL PDZ FP-2 | ARNT-TACC3 inh | Vif inh | PglD inh
COC1=CC(=O)c2nc(Cl)ccc2C1=O | / | / | / | / | 8 | /
Cc1ccc(/C=C2\CCOC2=O)cc1 | -2 | -18 | -1 | -12 | -4 | -2
Cc1ccc(/C=C2/CNC/C(=C/c3ccc(C)cc3)C2=O)cc1 | 39* | / | 0 | -8 | 120* | /
O=C(CC(c1ccccc1)C1CCCCC1=O)c1ccccc1 (stereo not drawn) | 32* | / | 0 | -6 | -1 | /
COc1ccc(C[C@@H]2OC3(C=CC(=O)C=C3)O[C@H]2Cc2ccc(OC)cc2)cc1 | 4 | / | 0 | -7 | 69* | /
O=C1C=CC2(C=C1)O[C@H](Cc1ccccc1)[C@@H](Cc1ccccc1)O2 | 1 | / | 2 | 6 | -8 | /
CNC(=O)Cn1nc(C)c(S(=O)(=O)N2CCOCC2)c1C | 50* | -11 | -1 | / | 20 | 0
Cc1ccc(S(=O)(=O)n2nc(C)c(S(=O)(=O)N3CCOCC3)c2C)cc1 | -3 | -2 | 1 | -4 | 9 | 0
O=C(OCC(=O)N1CCCCCC1)c1ccc[nH]c1=O | -2 | -19 | -1 | -19 | -2 | -2
O=C(OCC(=O)N1CCOCC1)c1ccc[nH]c1=O | 0 | -13 | 125* | -1 | 1 | 3
COc1ccc(Nc2nc(Nc3ccc(OC)cc3)nc(-n3[nH]c(=O)c(C)c3C)n2)cc1 | 2 | -17 | -1 | 2 | 56* | 1
COc1ccc(CN2C3CCC2CC(NC(=O)c2cc(OC)c(OC)c(OC)c2)C3)cc1 (stereo not drawn) | -2 | -1 | 0 | 0 | 63* | 14
COc1ccc(C(=O)NC2CC3CCCC(C2)N3Cc2ccccc2)cc1OC (stereo not drawn) | -3 | 4 | -1 | 3 | 52* | 1
CO[C@H]1CN(C)C(=O)c2cc(NS(=O)(=O)c3cccc(F)c3)ccc2OC[C@@H](C)N(Cc2cc(F)ccc2F)C[C@H]1C | / | 13 | / | -9 | / | -2
C=CCNC(=O)C(=O)NCC1CCCN1CC (stereo not drawn) | -4 | / | -1 | 1 | 4 | /

More structures follow:
canonical_smiles | CAL PDZ FP-1 | Yeast UUG start | CAL PDZ FP-2 | ARNT-TACC3 inh | Vif inh | PglD inh
CCCNC(=O)C(=O)NCC1CCCN1CC (stereo not drawn) | 33* | -19 | 30 | -2 | 4 | -3
O=C(Nc1ccc2c(c1)OCO2)N[C@@H]1CC[C@H](CCNC(=O)C2CCCCC2)O[C@@H]1CO | / | -6 | / | 6 | / | -4
Cc1noc(C)c1NC(=O)Nc1ccc2c(c1)C(=O)N([C@H](C)CO)C[C@@H](C)[C@H](CN(C)Cc1ccc3c(c1)OCO3)O2 | / | -7 | / | -3 | / | 1
Cc1ccc2nc(N3CCN(Cc4nnnn4C4CCCC4)CC3)c(C#N)cc2c1 | 55* | -4 | -2 | -11 | / | 2
Cc1ccc(C)c(N2CCN(Cc3nnnn3C3CCCCC3)CC2)c1 | 3 | -11 | 0 | -7 | -8 | -2
CO[C@H]1CN(C)C(=O)c2cc(NC(=O)c3cc(C)on3)ccc2OC[C@@H](C)N(C)C[C@H]1C | / | -17 | / | -4 | / | -1
COc1ccc(S(=O)(=O)Nc2cc3c(C(C)=O)c(C)oc3c3ccccc23)cc1 | -3 | -21 | -1 | -4 | 102* | 5
Cc1oc2c(cc(NS(=O)(=O)c3ccc(F)cc3)c3ccccc32)c1C(=O)O | 5 | -12 | -3 | -3 | 11 | -5
O=C(NCc1csc(-c2cccs2)n1)C1CCCCC1 | 33* | / | 0 | -5 | 0 | /
C[C@@H]1CN([C@H](C)CO)C(=O)c2cc(NC(=O)Cc3ccccc3)ccc2O[C@H]1CN(C)C(=O)Nc1ccc2c(c1)OCO2 | / | 37 | / | 0 | / | 1
O=C(CN(Cc1ccccc1)S(=O)(=O)c1ccc(F)cc1)NCCC1=CCCCC1 | 73* | -12 | 25 | -7 | 5 | 2
C[C@@H]1CN([C@@H](C)CO)C(=O)c2cccc(NC(=O)Nc3ccccc3)c2O[C@@H]1CN(C)Cc1ccncc1 | / | 14 | / | 1 | / | 13
CC1(C)CSC(=S)N1S(=O)(=O)c1ccccc1 | -2 | 7 | -2 | 64* | -5 | -2
Cc1ccc(NC2C(=O)NC(=O)NC2=O)cc1 | -4 | -14 | -1 | 41* | 1 | 1
CSCC(O)Cn1ncc2ccccc2c1=O (stereo not drawn) | 31* | / | -1 | -1 | -8 | /

(further entries)
canonical_smiles | CAL PDZ FP-1 | Yeast UUG start | CAL PDZ FP-2 | ARNT-TACC3 inh | Vif inh | PglD inh
O=C(O)Cn1ncc2ccccc2c1=O | -2 | / | -2 | -10 | 2 | /
CN1C(=O)c2cc(NC(=O)c3ccc(F)cc3)ccc2OC[C@H]2O[C@H](CC(=O)NCC3CCCCC3)CC[C@H]21 | / | 41 | / | -22 | / | 8
Cc1cccc(NC(=O)C2CCN(S(C)(=O)=O)CC2)c1C | 55* | -11 | -4 | 0 | 7 | 1
CC1(C)CC(=O)C(C=NCCN2CCNC2=O)=C(O)C1 | 52* | 10 | 0 | -9 | -18 | -5
